# Values of other authors, collected in patent US20040241152A1, “Methods for inducing an immune response with an elevated th1/th2 ratio, by intracellular induction of nfkappab” (priority 2001, published 2004).
# Entries after “also recorded” stand apart in the source; their conditions may differ.
# Details: molecule incorporated into DNA vaccine; cited from earlier work
substance,measurement,value
IL-2: cytokine incorporated into DNA vaccines,Antibody,↑IgG2a and ↑IgG
same,CTL,↑CTL
same,Cellular response,↑IFNγ; also recorded: ↑proliferation
